Literature values in patent publication US12172969B2, “Deuterated secnidazole for use in the treatment of bacterial vaginosis and methods and uses thereof” (EVOFEM BIOSCIENCES, INC., priority 2018, dated 2024).

Details: cited from earlier work

Q: Which “absorption after oral administration” value does the source give for `Cc1ncc([N+](=O)[O-])n1CC(C)O` (stereo not shown) [secnidazole, 1-(2-methyl-5-nitro-1H-imidazol-1-yl) propan-2-ol] here?
A: rapidly and completely absorbed
